## Ab-91 heavy chain CDR variants: yeast mating affinities

All variants were tested on one target, the spike HR2 peptide PDVDLGDISGINAS (SARS-CoV-2).

Parent: Ab-91, a human scFv built as VL, a 15-residue (Gly4Ser)3 linker, VH. Only the CDRs of the heavy chain vary.
VL: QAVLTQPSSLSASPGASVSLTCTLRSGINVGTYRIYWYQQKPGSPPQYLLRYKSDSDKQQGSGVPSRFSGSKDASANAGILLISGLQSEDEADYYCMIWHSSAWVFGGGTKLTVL
VH: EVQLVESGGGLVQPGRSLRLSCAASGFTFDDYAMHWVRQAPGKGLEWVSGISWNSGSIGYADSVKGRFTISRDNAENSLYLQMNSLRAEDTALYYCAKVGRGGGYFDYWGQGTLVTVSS

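Phage display of a naive human antibody library on the peptide gave the parent. In library AAYL51, one, two or three CDR residues were substituted; doubles and triples were drawn at random. The scFvs were displayed on barcoded MATa yeast, the peptide on MATalpha yeast. After mating in shaken culture at 30 °C for 16 h, diploids were selected and their barcode pairs sequenced. Read counts were normalised to the haploid input and turned into Kd by a linear fit to BCL2-family pairs of known affinity, for each replicate. Mating was done three times.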

Each variant is given by its three heavy chain CDRs, as the data file delimits them; those of the parent are GFTFDDYAMH, GISWNSGSIGYADSVK, VGRGGGYFDY.
Every variant below is changed at D30 of the VH (sequential numbering).
Affinities are written as log10 Kd with Kd in nM; a lower number is a better binder.
The mean shown is taken over the replicates in which the pair was detected.
"nd" marks a missing value. The strain was present, yet no cells mated with the target were sequenced in any replicate, which points to weak or no binding.
For reference, the parent read 1.86 as the reference entry and 0.88 as a member of this library.

With GFTFMDYAMH / GIRKNSGSIGYADSVK / VGRGGGYFDY the result was 5.31 (2 of 3 replicates).
With GFTFMDYAMH / GISLNSGSIGYADSVK / VGRGGGYFDY the result was nd (0 of 3 replicates).
With GFVFQDYAMH / GISWNVGSIGYADSVK / VGRGGGYFDY the result was 2.12 (3 of 3 replicates).
With GFTFYDYAMH / GISNNSGSIGYADSVK / VGRGNGYFDY the result was 4.87 (2 of 3 replicates).
With GFTFIDYAMH / GISWNSGSIGDADSVK / VGRGFGYFDY the result was 5.41 (3 of 3 replicates).
With GFTFMDVAMH / GISWNSGSIGYADSVK / VGRGGGYFDY the result was 1.10 (3 of 3 replicates).
With GFTFADYAMH / GISWNSGSIGYADSVK / VGRGFGYFDF the result was nd (0 of 3 replicates).
With GFTFSDYAMH / GISWNKGSIGYADSVK / TGRGGGYFDY the result was 4.43 (1 of 3 replicates).
With GFTFYDYAMH / GISWNSGSIGYADSVK / VGRGGGYFDY the result was 3.23 (3 of 3 replicates).
With GFTFPDYAMH / GTSWNSGSIGYFDSVK / VGRGGGYFDY the result was 5.40 (1 of 3 replicates).
With GFTFPAYAMH / GISWNSGSIGYADSVK / VGRGGGYFDF the result was 0.03 (3 of 3 replicates).
With GFTFFDYAMH / GISANSGSIGYADSVK / VGRGGGYFDY the result was 1.48 (3 of 3 replicates).
With GFTFLDYAMH / GISWNRGSIGYADSVK / VGRGGVYFDY the result was nd (0 of 3 replicates).
With GFTNTDYAMH / GISWNSGSIGYADSVK / VGRGGGYFDD the result was nd (0 of 3 replicates).
With GFTFTDYAMH / GISWNSGSIGYADSVC / VGRGGGYFDY the result was 1.98 (3 of 3 replicates).
With GWTFKEYAMH / GISWNSGSIGYADSVK / VGRGGGYFDY the result was 3.18 (3 of 3 replicates).
With GFTFNDYAMH / GASWNSGSIGYADVVK / VGRGGGYFDY the result was nd (0 of 3 replicates).
With GFTREDYAMH / GISWNSGSIGYADSVK / VGRGGGYFDY the result was nd (0 of 3 replicates).
With GFTFWDYAFH / GISWNSGSIGYADGVK / VGRGGGYFDY the result was 4.24 (1 of 3 replicates).
With GFTFVDYAMH / NISWNSGSICYADSVK / VGRGGGYFDY the result was 4.68 (3 of 3 replicates).
With GFTFCDYAMH / GISWCSGSIGYADSVK / VGRGGGYFDS the result was nd (0 of 3 replicates).
With GFTKPDYAMH / GISWNSGSIGYAESVK / VGRGGGYFDY the result was nd (0 of 3 replicates).
With GFTFCDYAMH / IISWNSGSIGYADSVK / VGRGGQYFDY the result was 4.49 (1 of 3 replicates).
With GFTFPDYAMH / GISWNSGSIGYADSVK / VGIGVGYFDY the result was 4.26 (2 of 3 replicates).
With GFFFWDYAMH / GISWNSGSIGYADSVK / VGRGGGYFDY the result was 3.63 (1 of 3 replicates).
With GFTFRDYVMH / GISWNSGSIGYADSMK / VGRGGGYFDY the result was 4.16 (3 of 3 replicates).
With GFTFADYAMH / GKSWNSGSIGYADSVV / VGRGGGYFDY the result was 3.56 (1 of 3 replicates).
With GFTFWIYAMH / GISWNSGSIGYADSLK / VGRGGGYFDY the result was 2.50 (1 of 3 replicates).
With GFTFFDYAMH / GISWPSGSIGYADSVK / VGRGGGYFDY the result was 4.97 (1 of 3 replicates).
With GFTFQSYAMH / GIKWNSGSIGYADSVK / VGRGGGYFDY the result was nd (0 of 3 replicates).
With GFTAKDYAMH / GSSWNSGSIGYADSVK / VGRGGGYFDY the result was 4.53 (1 of 3 replicates).
With GFTFHDYAMH / GISWNSGSIQYYDSVK / VGRGGGYFDY the result was 4.06 (1 of 3 replicates).
With GWTFKDYAMH / GILWNSGSIGYADSVK / VGRGGGYFDY the result was 3.45 (1 of 3 replicates).
With GFTFWNYAKH / GISWNSGSIGYADSVK / VGRGGGYFDY the result was nd (0 of 3 replicates).
With GRTFADYAMH / GISWNSGSIGYALSVK / VGRGGGYFDY the result was nd (0 of 3 replicates).
With GFTFLDYAMH / GISWNSGSIGYADSVK / VGRGIGYFDY the result was 3.79 (1 of 3 replicates).
With GFTFSDYAMH / GISWNSGSIGGADSVK / VGRGDGYFDY the result was 2.98 (1 of 3 replicates).
With GFTFFDYAMH / TISWNSGSIGYADSVK / VGRGGGYFDY the result was nd (0 of 3 replicates).
With GFTFKDYAMH / GISWNSGSIGYADDVK / VGRGGPYFDY the result was 4.45 (3 of 3 replicates).
With GFTFSDYAMH / GISWNSGSIGYADSVK / VGRGGGYFDY the result was 0.98 (3 of 3 replicates).
With GFTFPDYAMH / GIDWNSGSIGYADSVK / VGRGGGYFDY the result was 5.68 (1 of 3 replicates).
With GFTFHDYAMH / GISWNSYSIGYADSVK / VGRGGEYFDY the result was nd (0 of 3 replicates).
With GFTFNDYAMH / GISWNSGSICRADSVK / VGRGGGYFDY the result was 4.08 (2 of 3 replicates).
With GFTFFDLAMH / GISWNSGSIGYADSVK / VGRGGGYFDY the result was nd (0 of 3 replicates).
With GFTFNDYAMH / GISWNPISIGYADSVK / VGRGGGYFDY the result was 4.17 (3 of 3 replicates).
With GFTKADYAMH / GISWNSGSIGYADSVK / VGRGGTYFDY the result was 5.09 (3 of 3 replicates).
With GFTFGDYAMH / GIPWNSGSIGYADSVV / VGRGGGYFDY the result was 4.76 (3 of 3 replicates).
With GFTFQDYAMH / GISWNSCSIGYADSVK / VGRGGGYFDA the result was 4.97 (3 of 3 replicates).

Top 8 of the variants detected in all replicates, tightest first:

| CDR-H1 | CDR-H2 | CDR-H3 | mean, log10 nM | detected |
|---|---|---|---|---|
| GFTFPAYAMH | GISWNSGSIGYADSVK | VGRGGGYFDF | 0.03 | 3 of 3 |
| GFTFSDYAMH | GISWNSGSIGYADSVK | VGRGGGYFDY | 0.98 | 3 of 3 |
| GFTFMDVAMH | GISWNSGSIGYADSVK | VGRGGGYFDY | 1.10 | 3 of 3 |
| GFTFFDYAMH | GISANSGSIGYADSVK | VGRGGGYFDY | 1.48 | 3 of 3 |
| GFTFTDYAMH | GISWNSGSIGYADSVC | VGRGGGYFDY | 1.98 | 3 of 3 |
| GFVFQDYAMH | GISWNVGSIGYADSVK | VGRGGGYFDY | 2.12 | 3 of 3 |
| GWTFKEYAMH | GISWNSGSIGYADSVK | VGRGGGYFDY | 3.18 | 3 of 3 |
| GFTFYDYAMH | GISWNSGSIGYADSVK | VGRGGGYFDY | 3.23 | 3 of 3 |

As a blank, each scFv also met three strains without target: over library AAYL51, 21% of these pairings were detected, typically at 4.54 and seldom below 3.26.

Data: MIT Lincoln Laboratory AlphaSeq set, Engelhart et al. 2022, doi:10.1038/s41597-022-01779-4, as distributed in FLAb.